# From patent US11046672B2, “Indolinones compounds and their use in the treatment of fibrotic diseases” (RESPIVERT LIMITED, priority 2015, dated 2021)
# By UniProt entry, the sequences of proteins in these tests, tags left out. Residues count along the entry.
# UniProt P09619, 33-1106 limits assumed: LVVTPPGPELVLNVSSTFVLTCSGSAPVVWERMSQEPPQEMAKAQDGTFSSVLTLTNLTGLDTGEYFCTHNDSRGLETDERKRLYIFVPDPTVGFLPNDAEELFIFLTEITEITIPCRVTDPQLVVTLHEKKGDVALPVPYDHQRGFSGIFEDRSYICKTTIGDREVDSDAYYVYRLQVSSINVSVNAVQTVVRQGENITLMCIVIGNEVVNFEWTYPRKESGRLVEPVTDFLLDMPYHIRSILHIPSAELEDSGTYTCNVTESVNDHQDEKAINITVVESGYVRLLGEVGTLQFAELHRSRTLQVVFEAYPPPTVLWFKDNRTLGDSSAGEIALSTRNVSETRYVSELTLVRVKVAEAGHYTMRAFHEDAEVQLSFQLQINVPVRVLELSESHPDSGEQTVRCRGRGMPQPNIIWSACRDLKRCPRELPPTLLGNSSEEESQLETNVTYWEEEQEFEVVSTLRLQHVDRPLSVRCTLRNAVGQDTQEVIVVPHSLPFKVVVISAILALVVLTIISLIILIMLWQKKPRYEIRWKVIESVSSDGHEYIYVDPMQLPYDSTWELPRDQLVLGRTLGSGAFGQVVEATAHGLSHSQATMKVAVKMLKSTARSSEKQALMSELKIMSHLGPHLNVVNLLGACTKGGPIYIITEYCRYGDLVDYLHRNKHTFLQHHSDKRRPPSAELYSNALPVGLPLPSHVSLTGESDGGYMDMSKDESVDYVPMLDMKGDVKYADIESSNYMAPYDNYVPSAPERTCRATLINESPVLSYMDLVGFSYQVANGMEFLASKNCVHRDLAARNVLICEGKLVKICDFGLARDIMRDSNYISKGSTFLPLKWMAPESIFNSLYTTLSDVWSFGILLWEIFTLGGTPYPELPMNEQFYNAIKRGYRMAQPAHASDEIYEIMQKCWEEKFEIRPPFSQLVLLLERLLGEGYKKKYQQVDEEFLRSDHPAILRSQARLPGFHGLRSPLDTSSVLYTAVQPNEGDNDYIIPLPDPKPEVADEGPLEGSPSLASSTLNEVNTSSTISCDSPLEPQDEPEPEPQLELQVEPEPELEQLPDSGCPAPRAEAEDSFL
# How the values were obtained:
# PDGFRβ [1] = target: T1, PDGFRβ (Homo sapiens (Human), UniProt P09619); experiment: PDGF-BB induced phosphorylation of PDGFRβ in fibroblasts (MRC5 cells, HTRF); assay type: cell-based; conditions: read-out: PDGFBB-induced PDGFRβ phosphorylation in MRC5 cells (IC50), n = 1 unless otherwise indicated
# PDGFRβ [2] = target: T1, PDGFRβ
# MRC5 cells = conditions: MTT
compound,measurement,setting,value
COC(=O)c1ccc2c(c1)NC(=O)/C2=C(\Nc1ccc(C(=O)NOCCN(C)C)c(C)c1)c1ccccc1,IC50,PDGFRβ [1],4.4 nM
same,% Recovery,"PAMPA permeability assay; PAMPA, donor and acceptor compartments",91%
same,Mean Papp,"PAMPA permeability assay; pH 7, 10 μM, 5 hr",0.0138 10^−6 cm s^−1
same,Ki,PDGFRβ [2],11.5 nM
same,Cell viability at 100 nM (%),MRC5 cells; 100 nM,110.2%
same,Cell viability at 300 nM (%),MRC5 cells; 300 nM,98.8%
same,Cell viability at 1000 nM (%),MRC5 cells; 1000 nM,61.2%
